Target: GLP-1 receptor, the receptor of insulin-secreting cells (INS-1 cells) (UniProt P32301)
Assay: competitive radioligand binding on INS-1 cells; displacement of 30 pM 125I-exendin-4 (9-39), gamma counting

exendin-4 (peptide) was tested, and the EC50 was 0.9 nM.

Source: patent publication US20110257084A1
